Reference: patent US8633245B2, “PAI-1 inhibitor” (Institute of Medicinal Molecular Design, Inc., priority 2008, dated 2014)

By UniProt entry, the sequences of proteins in these tests, tags left out. Residues count along the entry.
UniProt P05121, 24-402: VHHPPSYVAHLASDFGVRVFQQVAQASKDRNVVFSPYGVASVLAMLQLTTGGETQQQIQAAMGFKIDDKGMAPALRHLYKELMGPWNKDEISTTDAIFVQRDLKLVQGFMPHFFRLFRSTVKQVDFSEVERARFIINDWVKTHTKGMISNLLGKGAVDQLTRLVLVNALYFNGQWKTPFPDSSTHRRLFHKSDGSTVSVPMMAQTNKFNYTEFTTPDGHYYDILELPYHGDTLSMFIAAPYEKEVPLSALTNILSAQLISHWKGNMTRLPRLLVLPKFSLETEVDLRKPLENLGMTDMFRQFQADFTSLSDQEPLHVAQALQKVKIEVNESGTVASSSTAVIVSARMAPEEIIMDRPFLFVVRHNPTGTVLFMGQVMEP

How the values were obtained:
Type in all cases: biochemical
recombinant human PAI-1 [1] = target: T1, recombinant human PAI-1 (Homo sapiens, UniProt P05121); test: Test Example 1: human PAI-1 inhibitory activity (tPA fluorogenic substrate, pH 7.5 Tris buffer)
T1 construct: purchased Molecular Innovations, Inc
Procedure: 50 mM Tris, 150 mM NaCl, 10 μg/ml BSA, 0.01% Tween80 (SIGMA-ALDRICH Corporation)

recombinant human PAI-1 [2] = target: T1, recombinant human PAI-1; test: Test Example 2: human PAI-1 inhibitory activity (tPA fluorogenic substrate, pH 7.4 HEPES buffer); conditions: calculated from the inhibition rates
Procedure: 0.1 M HEPES, 0.1 M NaCl. 1 mM EDTA. 0.1% Polyethylene glycol 8,000 (Hampton Research Corporation),
2 mM Dimethyldecylphoshine oxide [Apo-10] (Fluka Corporation)

recombinant rat PAI-1 = target: T2, recombinant rat PAI-1 (Rattus norvegicus, UniProt P20961); test: Test Example 3: rat PAI-1 inhibitory activity (as Test Example 2 with rat PAI-1); conditions: calculated from the inhibition rates
T2 construct: purchased Molecular Innovations, Inc
T2 sequence (P20961 24-402): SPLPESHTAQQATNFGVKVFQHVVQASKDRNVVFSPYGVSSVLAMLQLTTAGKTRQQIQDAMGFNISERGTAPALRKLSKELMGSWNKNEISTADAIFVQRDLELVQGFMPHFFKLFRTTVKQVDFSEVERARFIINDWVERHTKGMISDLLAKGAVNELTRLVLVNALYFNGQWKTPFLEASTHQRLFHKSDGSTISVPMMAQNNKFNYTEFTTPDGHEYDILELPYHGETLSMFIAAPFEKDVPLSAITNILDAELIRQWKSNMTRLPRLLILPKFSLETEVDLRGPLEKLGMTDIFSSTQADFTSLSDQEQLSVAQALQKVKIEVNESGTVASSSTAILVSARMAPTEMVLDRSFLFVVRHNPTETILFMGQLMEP

Inhibition Rate of PAI-1 Activity (%) (recombinant human PAI-1 [1]; Compound Concentration 5 μM) | Inhibition Rate of PAI-1 Activity (%) (recombinant human PAI-1 [1]; Compound Concentration 10 μM) | Inhibition Rate of PAI-1 Activity (%) (recombinant human PAI-1 [1]; Compound Concentration 25 μM) | IC50 (recombinant human PAI-1 [2]) [nM] | IC50 (recombinant rat PAI-1) [nM] | SMILES
36 | 65 | 92 | – | – | O=C(O)C=Cc1cc(-c2ccc(OC(F)(F)F)cc2)ccc1OCc1ccc(Cl)cc1 [Compound 18]
14 | 21 | – | – | – | O=C(O)C=Cc1cc(-c2ccccc2[N+](=O)[O-])ccc1OCc1ccccc1 [Compound 7]
– | 15 | 31 | – | – | O=C(O)/C=C/c1cc(-c2ccccc2)ccc1OCc1ccccc1 [Compound 45]
25 | 56 | 91 | – | – | Cc1ccc(-c2ccc(OCc3ccc(C(C)(C)C)cc3)c(/C=C/C(=O)O)c2)cc1 [Compound 41]
– | 13 | 77 | – | – | O=C(O)CCc1cc(-c2ccc(OC(F)(F)F)cc2)ccc1OCc1ccc(Cl)cc1 [Compound 19]
27 | 59 | 97 | – | – | Cc1ccc(-c2ccc(OCc3ccc(C(C)(C)C)cc3)c(CCC(=O)O)c2)cc1 [Compound 42]
23 | 56 | 96 | – | – | CC(C)(C)c1ccc(COc2ccc(-c3ccc(Cl)cc3)cc2CCC(=O)O)cc1 [Compound 50]
– | – | – | 1410 | 3310 | CCCCc1ccc(COc2ccc(-c3ccc(OC(F)(F)F)cc3)cc2CCC(=O)O)cc1 [Compound 30]
